B1: Testin (Homo sapiens), Q9UGI8 (parent)
chain: MDLENKVKKMGLGHEQGFGAPCLKCKEKCEGFELHFWRKICRNCKCGQEEHDVLLSNEEDRKVGKLFEDTKYTTLIAKLKSDGIPMYKRNVMILTNPVAAKKNVSINTVTYEWAPPVQNQALARQYMQMLPKEKQPVAGSEGAQYRKKQLAKQLPAHDQDPSKCHELSPREVKEMEQFVKKYKSEALGVGDVKLPCEMDAQGPKQMNIPGGDRSTPAAVGAMEDKSAEHKRTQYSCYCCKLSMKEGDPAIYAERAGYDKLWHPACFVCSTCHELLVDMIYFWKNEKLYCGRHYCDSEKPRCAGCDELIFSNEYTQAENQNWHLKHFCCFDCDSILAGEIYVMVNDKPVCKPCYVKNHAVVCQGCHNAIDPEVQRVTYNNFSWHASTECFLCSCCSKCLIGQKFMPVEGMVFCSVECKKRMS
partner: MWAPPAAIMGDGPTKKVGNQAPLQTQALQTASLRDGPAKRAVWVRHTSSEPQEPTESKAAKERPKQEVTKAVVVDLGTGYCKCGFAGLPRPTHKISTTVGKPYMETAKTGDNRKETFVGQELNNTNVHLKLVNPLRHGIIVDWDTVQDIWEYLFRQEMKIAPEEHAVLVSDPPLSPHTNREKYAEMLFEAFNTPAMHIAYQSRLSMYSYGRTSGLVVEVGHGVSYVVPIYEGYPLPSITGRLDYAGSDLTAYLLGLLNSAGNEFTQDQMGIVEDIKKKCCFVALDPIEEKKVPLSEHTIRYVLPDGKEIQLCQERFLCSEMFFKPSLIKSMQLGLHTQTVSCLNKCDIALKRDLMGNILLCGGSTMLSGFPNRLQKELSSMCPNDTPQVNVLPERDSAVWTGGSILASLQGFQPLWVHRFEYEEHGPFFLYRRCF
B2: Actin-like protein 7A (Homo sapiens), Q9Y615 (parent)
chain: B1 partner
partner: B1 chain

Variants of: B1
Conditions: with acl7a_human ACTL7A

effect of a mutation on the interaction | Variant
disrupting interaction strength | MDLENKVKKMGLGHEQGFGAPCLKCKEKCEGFELHFWRKICRNCKCGQEEHDVLLSNEEDRKVGKLFEDTKYTTLIAKLKSDGIPMYKRNVMILTNPVAAKKNVSINTVTYEWAPPVQNQALARQYMQMLPKEKQPVAGSEGAQYRKKQLAKQLPAHDQDPSKCHELSPREVKEMEQFVKKYKSEALGVGDVKLPCEMDAQGPKQMNIPGGDRSTPAAVGAMEDKSAEHKRTQYSCYCCKLSMKEGDPAIYAERAGYDKLWHPACFVCSTCHELLVDMIYFWKNEKLYCGRHYCDSEKPRCAGCDELIFSNEYTQAENQNWHLKHFCAFDCDSILAGEIYVMVNDKPVCKPCYVKNHAVVCQGCHNAIDPEVQRVTYNNFSWHASTECFLCSCCSKCLIGQKFMPVEGMVFCSVECKKRMS [C328A]

Variants of: B2
Conditions: with tes_human TES

effect of a mutation on the interaction | Variant
disrupting interaction strength | MWAPPAAIMGDGPTKKVGNQAPLQTQALQTASLRDGPAKRYVWVRHTSSEPQEPTESKAAKERPKQEVTKAVVVDLGTGYCKCGFAGLPRPTHKISTTVGKPYMETAKTGDNRKETFVGQELNNTNVHLKLVNPLRHGIIVDWDTVQDIWEYLFRQEMKIAPEEHAVLVSDPPLSPHTNREKYAEMLFEAFNTPAMHIAYQSRLSMYSYGRTSGLVVEVGHGVSYVVPIYEGYPLPSITGRLDYAGSDLTAYLLGLLNSAGNEFTQDQMGIVEDIKKKCCFVALDPIEEKKVPLSEHTIRYVLPDGKEIQLCQERFLCSEMFFKPSLIKSMQLGLHTQTVSCLNKCDIALKRDLMGNILLCGGSTMLSGFPNRLQKELSSMCPNDTPQVNVLPERDSAVWTGGSILASLQGFQPLWVHRFEYEEHGPFFLYRRCF [A41Y]
disrupting interaction strength | MWAPPAAIMGDGPTKKVGNQAPLQTQALQTYSLRDGPAKRAVWVRHTSSEPQEPTESKAAKERPKQEVTKAVVVDLGTGYCKCGFAGLPRPTHKISTTVGKPYMETAKTGDNRKETFVGQELNNTNVHLKLVNPLRHGIIVDWDTVQDIWEYLFRQEMKIAPEEHAVLVSDPPLSPHTNREKYAEMLFEAFNTPAMHIAYQSRLSMYSYGRTSGLVVEVGHGVSYVVPIYEGYPLPSITGRLDYAGSDLTAYLLGLLNSAGNEFTQDQMGIVEDIKKKCCFVALDPIEEKKVPLSEHTIRYVLPDGKEIQLCQERFLCSEMFFKPSLIKSMQLGLHTQTVSCLNKCDIALKRDLMGNILLCGGSTMLSGFPNRLQKELSSMCPNDTPQVNVLPERDSAVWTGGSILASLQGFQPLWVHRFEYEEHGPFFLYRRCF [A31Y]
